# From EP4847503A1, “TETRAZOLE COMPOUND, PHARMACEUTICAL COMPOSITION THEREOF AND USE THEREOF” (dated 2026)
# Test system: rat chronic constriction injury of the sciatic nerve model
# Assay: Analgesic effect in rat chronic constriction injury of the sciatic nerve model (mechanical allodynia, von Frey filaments)
# Conditions: 10 mg/kg PO
# Procedure: Test Example 6 Study on the analgesic effect of the compounds of the present invention on inhibiting pain in a rat chronic constriction injury of the sciatic nerve model
# A 5% DMSO + 10% Solutol + 85% Saline solution was used.
# Experimental animals: Sprague-Dawley rats, weighing 80-100 g, male, purchased from Beijing Vital River Laboratory Animal Technology Co., Ltd.
# • 1) The surgical procedure was performed under aseptic conditions. • 2) Surgical instruments (scissors, forceps, scalpels, surgical cotton, and sutures) were sterilized before surgery. • 3) The animals were anesthetized with Zoletil 50 + xylazine hydrochloride injection (20 mg/kg + 8 mg/kg, intraperitoneal injection). The toes of the animals were pinched to confirm complete anesthesia before surgery. An ophthalmic ointment was applied to the eyes of the animals to prevent corneal drying. • 4) The skin in the surgical area of the left hind plantar surface was disinfected three times with iodophor and 70% ethanol. The surgery was started after the skin dried. • 5) The left sciatic nerve was isolated. Four loose ligatures were tied around the sciatic nerve using 4-0 chromic gut sutures at approximately 7 mm proximal to the bifurcation, with a spacing of about 1 mm between the ligatures. • 6) The wound was sutured. • 7) The surgical instruments were cleaned and sterilized using a hot bead sterilizer. • 8) After surgery, the animals were placed on a heating pad, and 5 mL of normal saline was injected subcutaneously to prevent dehydration. After the animals were fully awake (able to move freely), they were returned to their cages.
# 1) On days 7 to 9 post-surgery, the animals were placed in the testing environment to habituate for at least 30 minutes per day. 2) On day 10 post-surgery, the baseline measurement of mechanical allodynia (PWT) was performed on all animals.
# On day 11 post-surgery, the animals in all groups were weighed and administered according to the grouping information.
# The mechanical allodynia test was performed on each animal using testing filaments at 1 h and 2 h after a single dose administration.
# • 1) The rats were placed individually in a Plexiglas box with a wire mesh floor to ensure that the paws of the rats could be tested. The rats were allowed to habituate for 15 minutes before the test. • 2) After habituation, the test was performed using testing filaments on the central plantar surface of the left hind paw of the rats. The testing filaments included 8 testing strengths: 3.61 (0.4 g), 3.84 (0.6 g), 4.08 (1 g), 4.31 (2 g), 4.56 (4 g), 4.74 (6 g), 4.93 (8 g), and 5.18 (15 g). During testing, the test filament was pressed vertically against the skin with enough force to bend the filament for 6-8 seconds, with an interval of 5 seconds between each test. During testing, a rapid paw withdrawal by the animal was recorded as a pain response. Paw withdrawal when the test filament was removed from the animal's skin was also recorded as a pain response. If the animal moved or walked around, it was not recorded as a pain response, and the test should be repeated. • 3) During the test, the 4.31 (2 g) filament was used first. […] The maximum strength of the testing filaments was 5.18 (15 g). • 4) The test results were recorded in the table below, where a pain response was recorded as "x" and no pain response was recorded as "o". [formula]
# Mechanical allodynia is expressed as the paw withdrawal threshold (PWT) in the rat behavioral test, which is calculated according to the following formula: 50% response threshold (g) = (10^((Xf+kδ)))/10,000 [formula] • Xf = value of the final testing filament used in the test • k = tabular value (Chaplan et al. 1994, page 62) • δ = mean difference (0.224)
# Data were analyzed using Prism software (GraphPad Software, Inc.).
smiles,measurement,setting,value
CC(C)Cc1cc(F)c(-c2nn[nH]n2)c(N2CCN(Cc3cccnn3)[C@@H](C)C2)c1,PWT,testing time point 0 h,2.86 g
same,PWT,testing time point 1 h,4.76 g
same,PWT,testing time point 2 h,6.62 g
